Experimental data published in US10023575B2, “Cyclic ether derivatives of pyrazolo[1,5-a]pyrimidine-3-carboxyamide” (Boehringer Ingelheim International GmbH, priority 2015, dated 2018).

By UniProt entry, the sequences of proteins in these tests, tags left out.
UniProt O00408, whole entry: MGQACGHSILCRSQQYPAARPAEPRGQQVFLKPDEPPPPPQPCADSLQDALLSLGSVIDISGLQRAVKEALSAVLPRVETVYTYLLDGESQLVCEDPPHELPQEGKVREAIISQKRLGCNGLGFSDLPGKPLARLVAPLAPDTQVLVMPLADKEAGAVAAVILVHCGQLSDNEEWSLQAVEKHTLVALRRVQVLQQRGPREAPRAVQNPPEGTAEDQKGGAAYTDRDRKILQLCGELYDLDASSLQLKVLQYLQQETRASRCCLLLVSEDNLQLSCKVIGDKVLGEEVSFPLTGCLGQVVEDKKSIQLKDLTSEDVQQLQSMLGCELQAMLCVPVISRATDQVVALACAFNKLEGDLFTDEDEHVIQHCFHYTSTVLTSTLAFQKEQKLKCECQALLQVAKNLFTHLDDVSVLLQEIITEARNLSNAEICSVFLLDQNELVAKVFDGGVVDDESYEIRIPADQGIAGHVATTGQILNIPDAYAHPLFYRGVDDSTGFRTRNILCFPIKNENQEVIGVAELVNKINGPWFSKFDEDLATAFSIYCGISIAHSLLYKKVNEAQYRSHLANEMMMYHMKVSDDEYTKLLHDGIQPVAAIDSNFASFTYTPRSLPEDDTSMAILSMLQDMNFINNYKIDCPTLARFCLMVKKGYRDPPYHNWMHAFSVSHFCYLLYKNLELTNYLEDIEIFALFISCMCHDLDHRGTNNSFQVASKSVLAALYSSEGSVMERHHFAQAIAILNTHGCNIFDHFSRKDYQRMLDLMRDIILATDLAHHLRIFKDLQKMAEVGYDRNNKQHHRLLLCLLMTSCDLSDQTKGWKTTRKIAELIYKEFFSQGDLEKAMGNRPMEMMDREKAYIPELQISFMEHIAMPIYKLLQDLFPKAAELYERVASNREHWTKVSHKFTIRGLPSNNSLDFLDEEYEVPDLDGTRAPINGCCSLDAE
UniProt Q9Y233, whole entry: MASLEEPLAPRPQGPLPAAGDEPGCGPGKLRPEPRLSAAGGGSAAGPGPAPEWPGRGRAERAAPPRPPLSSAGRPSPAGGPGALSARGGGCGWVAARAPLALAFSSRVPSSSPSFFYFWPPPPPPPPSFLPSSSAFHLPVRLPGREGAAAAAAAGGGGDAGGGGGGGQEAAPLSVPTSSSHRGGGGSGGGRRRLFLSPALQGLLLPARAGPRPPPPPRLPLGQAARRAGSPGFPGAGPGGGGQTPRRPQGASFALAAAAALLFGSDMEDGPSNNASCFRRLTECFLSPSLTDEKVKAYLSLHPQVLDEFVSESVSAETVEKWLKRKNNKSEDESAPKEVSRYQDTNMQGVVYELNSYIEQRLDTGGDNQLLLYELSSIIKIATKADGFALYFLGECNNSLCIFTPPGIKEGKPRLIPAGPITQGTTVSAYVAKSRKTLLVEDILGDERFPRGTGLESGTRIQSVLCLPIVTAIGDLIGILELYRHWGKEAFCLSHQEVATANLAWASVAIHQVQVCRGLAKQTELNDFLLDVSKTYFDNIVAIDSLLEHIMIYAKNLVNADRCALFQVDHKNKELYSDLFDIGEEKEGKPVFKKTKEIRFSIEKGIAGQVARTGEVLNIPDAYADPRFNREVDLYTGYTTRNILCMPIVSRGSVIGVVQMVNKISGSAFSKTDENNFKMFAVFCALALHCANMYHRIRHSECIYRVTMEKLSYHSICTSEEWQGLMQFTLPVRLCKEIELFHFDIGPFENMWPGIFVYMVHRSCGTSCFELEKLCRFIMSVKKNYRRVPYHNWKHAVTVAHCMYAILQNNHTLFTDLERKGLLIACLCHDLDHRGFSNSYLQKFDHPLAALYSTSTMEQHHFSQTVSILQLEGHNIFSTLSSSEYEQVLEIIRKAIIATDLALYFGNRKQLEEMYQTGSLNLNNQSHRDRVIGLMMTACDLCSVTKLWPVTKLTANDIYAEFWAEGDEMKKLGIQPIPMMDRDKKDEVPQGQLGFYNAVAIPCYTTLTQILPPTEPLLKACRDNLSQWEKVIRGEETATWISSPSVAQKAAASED

Assays:
PDE 2A = PDE 2A (Homo sapiens (Human), UniProt O00408); assay: Phosphodiesterase (PDE) 2A assay with fluorescent substrate (IMAP, fluorescence polarization); format: biochemical; conditions: read-out: PDE2 IC50, labeled cAMP 30 nM
PDE10 = PDE10 (Homo sapiens (Human), UniProt Q9Y233); assay: Phosphodiesterase (PDE) 10 assay with fluorescent substrate (IMAP, fluorescence polarization); format: biochemical; conditions: read-out: PDE10 IC50, labeled cAMP 30 nM

IC50 (PDE 2A): 0.08 µM
IC50 (PDE10): 9.82 µM
SMILES: COc1cccc(C2(NC(=O)c3cnn4cc(C5CC5)cnc34)CCOCC2)c1F
